Experimental data reported in PubChem BioAssay (NCI).
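In this assay, cells in 96-well plates receive the compound at five concentrations for 48 hours. Endpoints are linearly interpolated between the surrounding concentrations. Definition used: TGI = concentration required for complete inhibition of growth.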

Key:
Assay in all cases: NCI anticancer screen, dose series, 48 h
[1] = test system: OVCAR-4 ovarian
[2] = test system: OVCAR-5 ovarian
[3] = test system: TK-10 renal
[4] = test system: HL-60(TB) leukemia
[5] = test system: IGROV1 ovarian
[6] = test system: HCT-116 colon
[7] = test system: SNB-75 CNS
[8] = test system: SN12C renal
[9] = test system: RXF 393 renal
[10] = test system: SNB-19 CNS
[11] = test system: PC-3 prostate
[12] = test system: NCI-H226 lung
[13] = test system: SK-MEL-28 melanoma
[14] = test system: MCF7 breast
[15] = test system: NCI/ADR-RES ovarian
[16] = test system: NCI-H460 lung
[17] = test system: HS 578T breast
[18] = test system: NCI-H23 lung
[19] = test system: HOP-92 NSCLC
[20] = test system: A498 renal
[21] = test system: K-562 leukemia
[22] = test system: MALME-3M melanoma
[23] = test system: UO-31 renal
[24] = test system: SF-268 CNS
[25] = test system: NCI-H522 lung
[26] = test system: ACHN renal
[27] = test system: CCRF-CEM leukemia
[28] = test system: NCI-H322M lung
[29] = test system: LOX IMVI melanoma
[30] = test system: HCC-2998 colon
[31] = test system: MDA-MB-435
[32] = test system: OVCAR-8 ovarian
[33] = test system: OVCAR-3 ovarian
[34] = test system: HT29 colon
[35] = test system: HOP-62 NSCLC
[36] = test system: SR leukemia
[37] = test system: SK-OV-3 ovarian
[38] = test system: MOLT-4 leukemia
[39] = test system: SW-620 colon
[40] = test system: BT-549 breast
[41] = test system: M14 melanoma
[42] = test system: KM12 colon
[43] = test system: UACC-62 melanoma
[44] = test system: T-47D breast
[45] = test system: U251 CNS
[46] = test system: COLO 205 colon
[47] = test system: HCT-15 colon
[48] = test system: MDA-MB-231 breast
[49] = test system: 786-0 renal
[50] = test system: DU-145 prostate
[51] = test system: SF-295 CNS
[52] = test system: RPMI-8226 leukemia

Measured: TGI

CCOP1(=O)N=C(/N=C(\N)N(CC)CC)N(C)C1(C)C (configuration not stated)
> 100 µM: all assays above
